The target in this assay is T1, p110 delta (Homo sapiens, UniProt O00329).
T1 construct: purchased Upstate Group, Millipore; Dundee, UK
In words: PI3K isoform inhibition assay (fluorescence polarization), p110 delta. To be noted: p110 delta binding IC50, Example 901. The assay is classed as biochemical. As to the method: PI3K enzymatic activity was assayed by measuring the amount of product phosphatidylinositol 3,4,5-phosphate (PIP3) formed from substrate 4,5 phosphatidylinositol 4,5-phosphate (PIP2) using a fluorescence polarization displacement assay. The decrease in fluorescence polarization of a fluorescent PIP3 probe is measured as it is displaced from a PIP3-binding protein GRP-1 detector by PI3K-catalyzed product. Assays were conducted in 384-well black Proxiplates in the presence of 10 mM Tris (pH 7.5), 50 mM NaCl, 4 mM MgCl2, 5% glycerol, 25 μM ATP, 10 μM PIP2 (Echelon Biosciences), 0.05% 3-[(3-cholamidopropyl)dimethylammonio]-1-propanesulfonate, 1 mM dithiothreitol, and 2% DMSO. […] The reactions were stopped at timepoints that yielded a fixed change in fluorescence polarization consistent with initial rate conditions (typically 30 minutes), by the addition of 12.5 mM EDTA, 100 nM GRP-1 detector, and 5 nM tetramethylrhodamine-labeled PIP3 (TAMRA-PIP3; Echelon Biosciences). After 60 minutes of incubation at room temperature to allow equilibration of labeled and unlabeled PIP3 binding, the parallel and perpendicular components of the fluorescence emissions from each sample were measured at an excitation wavelength of 530 nm and an emission wavelength of 590 nm using an Envision fluorescent plate reader with a rhodamine filter (PerkinElmer Life and Analytical Sciences; Wellesley, Mass.). […]
On the technique in general: In fluorescence polarisation assays a small probe gives low polarisation when free and higher when bound to something large.

By UniProt entry, the sequences of proteins in these tests, tags left out. Where a name states a change or a piece, a line headed by the entry shows the natural chain unless it says otherwise.
UniProt O00329: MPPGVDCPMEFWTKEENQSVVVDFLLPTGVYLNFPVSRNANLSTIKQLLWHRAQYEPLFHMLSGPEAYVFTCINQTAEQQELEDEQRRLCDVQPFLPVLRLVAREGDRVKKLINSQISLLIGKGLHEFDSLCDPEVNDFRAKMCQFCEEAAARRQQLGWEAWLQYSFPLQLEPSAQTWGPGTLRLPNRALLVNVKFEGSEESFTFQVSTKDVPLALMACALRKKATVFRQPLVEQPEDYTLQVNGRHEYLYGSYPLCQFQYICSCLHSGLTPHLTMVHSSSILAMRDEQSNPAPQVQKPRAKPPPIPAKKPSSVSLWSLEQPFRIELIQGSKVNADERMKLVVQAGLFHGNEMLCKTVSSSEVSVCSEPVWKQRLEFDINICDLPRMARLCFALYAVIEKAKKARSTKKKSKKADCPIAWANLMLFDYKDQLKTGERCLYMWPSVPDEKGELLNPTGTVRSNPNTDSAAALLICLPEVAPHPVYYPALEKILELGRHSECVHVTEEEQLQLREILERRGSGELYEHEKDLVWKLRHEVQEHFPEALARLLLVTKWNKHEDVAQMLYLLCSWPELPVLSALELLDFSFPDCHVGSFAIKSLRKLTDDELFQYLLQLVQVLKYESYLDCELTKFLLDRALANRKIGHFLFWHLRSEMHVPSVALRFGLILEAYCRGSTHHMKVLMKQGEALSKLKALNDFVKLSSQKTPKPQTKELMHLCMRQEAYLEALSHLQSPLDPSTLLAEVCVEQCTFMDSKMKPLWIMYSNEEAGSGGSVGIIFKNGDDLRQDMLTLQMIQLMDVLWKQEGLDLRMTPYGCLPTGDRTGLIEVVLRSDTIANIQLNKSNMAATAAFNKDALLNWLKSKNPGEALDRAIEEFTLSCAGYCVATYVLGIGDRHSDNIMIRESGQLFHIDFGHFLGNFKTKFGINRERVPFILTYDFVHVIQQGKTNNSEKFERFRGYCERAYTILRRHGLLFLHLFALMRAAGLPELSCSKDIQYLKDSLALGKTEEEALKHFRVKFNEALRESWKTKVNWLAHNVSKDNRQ

Regarding `CN(C)C1CCN(Cc2cc3nc(-c4c[nH]c5ccccc45)nc(N4CCOCC4)c3s2)CC1` [Compound 101, 1-((2-(1H-indol-3-yl)-4-morpholinothieno[3,2-d]pyrimidin-6-yl)methyl)-N,N-dimethylpiperidin-4-amine], the IC50 (usually the concentration at which inhibition is half-maximal) worked out at 4.9 nM.

For the origin of these results see US8158625B2, “Bicyclic indole-pyrimidine PI3K inhibitor compounds selective for P110 delta, and methods of use” (Genentech, Inc., priority 2009, dated 2012).
